These results are taken from patent publication US11958861B2, “Spirocyclic lactams as JAK2 V617F inhibitors” (Incyte Corporation, priority 2021, dated 2024).

The chains behind the UniProt entries cited, without tags or fusion partners. Residues count along the entry.
UniProt O60674, 536-812 W659A/W777A/F794H: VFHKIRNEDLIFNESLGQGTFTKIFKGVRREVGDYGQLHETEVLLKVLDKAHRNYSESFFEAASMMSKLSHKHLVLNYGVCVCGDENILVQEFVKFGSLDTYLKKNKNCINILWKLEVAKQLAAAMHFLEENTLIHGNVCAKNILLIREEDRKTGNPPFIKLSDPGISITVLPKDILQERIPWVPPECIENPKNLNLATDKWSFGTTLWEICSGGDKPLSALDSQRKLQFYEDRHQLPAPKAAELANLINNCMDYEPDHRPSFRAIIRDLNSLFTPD
UniProt O60674, 536-812 V617F/W659A/W777A/F794H: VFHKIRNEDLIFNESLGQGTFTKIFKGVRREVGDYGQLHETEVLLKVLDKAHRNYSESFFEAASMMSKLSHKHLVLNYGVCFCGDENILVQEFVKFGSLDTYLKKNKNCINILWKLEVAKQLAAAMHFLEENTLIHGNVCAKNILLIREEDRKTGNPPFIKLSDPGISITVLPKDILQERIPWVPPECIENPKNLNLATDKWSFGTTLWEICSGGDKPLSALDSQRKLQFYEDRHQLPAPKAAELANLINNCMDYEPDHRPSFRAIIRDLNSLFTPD
UniProt O60674, 826-1132: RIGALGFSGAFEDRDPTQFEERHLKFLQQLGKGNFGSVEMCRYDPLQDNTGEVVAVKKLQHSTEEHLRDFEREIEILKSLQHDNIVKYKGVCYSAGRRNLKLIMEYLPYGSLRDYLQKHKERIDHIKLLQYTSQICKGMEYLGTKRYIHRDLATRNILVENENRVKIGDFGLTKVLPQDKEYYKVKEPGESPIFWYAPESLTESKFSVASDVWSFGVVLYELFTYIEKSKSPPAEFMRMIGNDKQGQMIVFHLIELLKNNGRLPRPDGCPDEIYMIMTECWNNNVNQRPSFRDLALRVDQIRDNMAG
UniProt O60674, 808-1132: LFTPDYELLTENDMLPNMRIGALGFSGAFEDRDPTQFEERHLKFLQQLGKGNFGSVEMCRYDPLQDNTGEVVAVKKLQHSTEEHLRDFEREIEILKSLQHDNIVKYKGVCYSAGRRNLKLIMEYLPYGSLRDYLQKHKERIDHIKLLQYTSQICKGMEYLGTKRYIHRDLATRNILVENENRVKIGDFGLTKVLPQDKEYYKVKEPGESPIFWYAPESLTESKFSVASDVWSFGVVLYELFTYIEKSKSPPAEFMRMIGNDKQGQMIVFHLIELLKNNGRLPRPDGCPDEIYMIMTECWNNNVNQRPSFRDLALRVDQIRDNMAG

Assay [1] has as its target T1, pseudo-kinase domain (JH2, amino-acids 536-812) of human Wild Type JAK2 (Homo sapiens, UniProt O60674, F794H/W659A/W777A).
T1 construct: pseudo-kinase domain (JH2, amino-acids 536-812 with 3 surface mutations W659A, W777A, F794H); purchased BPS Bioscience 79463; host or cells: baculovirus expression system
The assay is described as follows: JAK2 LanthaScreen JH2-WT Binding Assay. The note with it: 1 hour at 25° C. As to the method: Example B. JAK2 LanthaScreen JH2-WT Binding Assay
(§1) JAK2 JH2-WT binding assay utilizes pseudo-kinase domain (JH2, amino-acids 536-812 with 3 surface mutations W659A, W777A, F794H) of human Wild Type JAK2 expressed as C-terminal His-Avi-tagged, biotinylated protein in a baculovirus expression system (BPS Bioscience, Catalog #79463). The assay was conducted in black 384-well polystyrene plates in a final reaction volume of 20 μL. JAK2 JH2-WT (0.145 nM) was incubated with compounds (100 nL serially diluted in DMSO) in the presence of 50 nM Fluorescent JAK2-JH2 Tracer (MedChem Express Catalog #HY-102055) and 0.25 nM Streptavidin-Tb cryptate (Cisbio Part #610SATLB) in assay buffer (50 mM Tris, pH=7.5, 10 mM MgCl2, 0.01% Brij-35, 0.1% BSA, 1 mM EGTA, 5% Glycerol and 5 mM DTT). Non-specific binding was accessed in the presence of 2 mM ATP. After incubation for 1 hour at 25° C., LanthaScreen signals were read on a PHERAstar FS plate reader (BMG LABTECH). Data was analyzed with IDBS XLfit and GraphPad Prism 5.0 software using a four parameter dose response curve to determine IC50 for each compound.
On the technique in general: TR-FRET usually uses a lanthanide donor and a delayed reading to cut background.

Assay [2] has as its target T2, pseudo-kinase domain (JH2, amino-acids 536-812) of human V617F mutant JAK2 (Homo sapiens, UniProt O60674, F794H/V617F/W659A/W777A).
T2 construct: pseudo-kinase domain (JH2, amino-acids 536-812 with 3 surface mutations W659A, W777A, F794H); purchased BPS Bioscience 79498; host or cells: baculovirus expression system
The assay is described as follows: JAK2 LanthaScreen JH2-V617F Binding Assay. The note with it: 1 hour at 25° C. Here is the method:
Example C. JAK2 LanthaScreen JH2-V617F Binding Assay
as §1, with “JH2-V617F” for “JH2-WT”, “V617F mutant” for “Wild Type”, “#79498).” for “#79463).”, “JH2-V617F (0.26” for “JH2-WT (0.145”

Assay [3] has as its target T3, catalytic domain (JH1, amino acids 826-1132) of human JAK2 (Homo sapiens, UniProt O60674).
T3 construct: catalytic domain (JH1, amino acids 826-1132) of human JAK2; purchased Carna Biosciences 08-445-20N; host or cells: baculovirus expression system
The assay is described as follows: JAK2 LanthaScreen JH1 Binding Assay. The note with it: 2 hours at 25° C. Here is the method: Example A. JAK2 LanthaScreen JH1 Binding Assay
JAK2 JH1 binding assay utilizes catalytic domain (JH1, amino acids 826-1132) of human JAK2 expressed as N-terminal FLAG-tagged, biotinylated protein in a baculovirus expression system (Carna Biosciences, Product #08-445-20N). The assay was conducted in black 384-well polystyrene plates in a final reaction volume of 20 μL. JAK2 JH1 (1.5 nM) was incubated with compounds (100 nL serially diluted in DMSO) in the presence of 50 nM Fluorescent JAK2-JH1 Tracer and 0.5 nM Streptavidin-Tb cryptate (Cisbio Part #610SATLB) in assay buffer (50 mM Tris, pH=7.5, 10 mM MgCl2, 0.01% Brij-35, 0.1% BSA, 1 mM EGTA, 5% Glycerol and 5 mM DTT). Non-specific binding was accessed in the presence of 2 mM ATP. After incubation for 2 hours at 25° C., LanthaScreen signals were read on a PHERAstar FS plate reader (BMG LABTECH). Data was analyzed with IDBS XLfit and GraphPad Prism 5.0 software using a four parameter dose response curve to determine IC50 for each compound.

Assay [4] concerns the target T4, catalytic domain (JH1, amino acids 808-1132) of human JAK2 (Homo sapiens, UniProt O60674).
T4 construct: catalytic domain (JH1, amino acids 808-1132) of human JAK2; His (N); purchased BPS Bioscience 40450; host or cells: baculovirus expression system
The assay is described as follows: JAK2 HTRF Enzyme Activity Assay. In kind it is biochemical. The note with it: ATP 30 μM, read-out: ENZ 30UMATP. Here is the method:
Example D. JAK2 HTRF Enzyme Activity Assay
JAK2 enzyme activity assays utilize catalytic domain (JH1, amino acids 808-1132) of human JAK2 expressed as N-terminal His-tagged protein in a baculovirus expression system (BPS Bioscience, Catalog #40450). The assays was conducted in black 384-well polystyrene plates in a final reaction volume of 20 μL. JAK2 (0.015 nM) was incubated with compounds (100 nL serially diluted in DMSO) in the presence of ATP (30 μM or 1 mM) and 500 nM Biotin-labeled EQEDEPEGDYFEWLE (SEQ ID NO.: 1) peptide (BioSource International, custom synthesis) in assay buffer (50 mM Tris, pH=7.5, 10 mM MgCl2, 0.01% Brij-35, 0.1% BSA, 1 mM EGTA, 5% Glycerol and 5 mM DTT) for 60 minutes at 25° C. The reactions were stopped by the addition of 10 μL of detection buffer (50 mM Tris, pH 7.8, 0.5 mg/mL BSA, 150 mM NaCl), supplemented with EDTA, LANCE Eu-W1024 anti-phosphotyrosine (PY20), (PerkinElmer, Catalog #AD0067) and Streptavidin SureLight APC (PerkinElmer Catalog #CR130-100), for a final concentration of 15 mM, 1.5 nM and 75 nM, respectively. HTRF signals were read after 30 minutes incubation at room temperature on a PHERAstar FS plate reader (BMG LABTECH). Data was analyzed with IDBS XLfit and GraphPad Prism 5.0 software using a four parameter dose response curve to determine IC50 for each compound.

As to “4-(1′-(1-(Cyanomethyl)cyclobutyl)-2-(1-(2,2-difluoroethyl)-1H-pyrazol-4-yl)-6-methyl-7-oxo-6,7-dihydro-3H-spiro[dipyrrolo[2,3-b:3′,2′-d]pyridine-8,4′-piperidin]-1′-yl)cyclobutyl)acetonitrile, trifluoroacetate salt [Example 51]”, the IC50 in assay [1] was no more than 100 nM; in assay [2], no more than 100 nM; in assay [3], 500 to 1250 nM; in assay [4], 500 to 1250 nM.
